Laboratory results from ChEMBL document CHEMBL1156774, “Design of O-acetylserine sulfhydrylase inhibitors by mimicking nature” (J Med Chem, 2010).

Tests used:
Cysteine synthase = molecular target: T1, Cysteine synthase (Haemophilus influenzae (strain ATCC 51907 / DSM 11121 / KW20 / Rd), UniProt P45040); test: (§1) Binding affinity to Haemophilus influenzae O-acetylserine sulfhydrylase expressed in Escherichia coli BL21 (DE3) by fluorescence emission spectra analysis
T1 sequence (P45040 whole entry): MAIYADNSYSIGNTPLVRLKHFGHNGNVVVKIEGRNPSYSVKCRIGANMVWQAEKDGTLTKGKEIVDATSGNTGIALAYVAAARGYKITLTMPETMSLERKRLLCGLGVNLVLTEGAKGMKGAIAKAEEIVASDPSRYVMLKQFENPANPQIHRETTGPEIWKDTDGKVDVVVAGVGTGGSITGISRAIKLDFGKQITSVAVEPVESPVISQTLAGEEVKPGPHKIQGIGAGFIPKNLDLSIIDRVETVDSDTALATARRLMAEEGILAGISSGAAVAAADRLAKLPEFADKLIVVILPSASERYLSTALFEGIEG

[1] = molecular target: T2, Cysteine synthase (Haemophilus influenzae (strain ATCC 51907 / DSM 11121 / KW20 / Rd)) (UniProt P45040); test: as §1
T2 sequence (whole entry): T1 sequence (P45040 whole entry)

Compound | Kd (Cysteine synthase) [µM] | Kdiss [1] [µM]
CC[C@H](C)[C@H](NC(=O)[C@H](CC(N)=O)NC(=O)[C@H](CCC(=O)O)NC(=O)[C@H](CC(N)=O)NC(=O)[C@@H](N)CCSC)C(=O)O | 38.9 | 
CC[C@H](C)[C@H](NC(=O)[C@@H](NC(=O)[C@H](CCCCN)NC(=O)[C@H](CC(N)=O)NC(=O)[C@@H](N)CCSC)C(C)C)C(=O)O | 13200 | 13300
CC[C@H](C)[C@H](NC(=O)[C@@H](NC(=O)[C@H](CCC(=O)O)NC(=O)[C@H](CC(N)=O)NC(=O)[C@@H](N)CCSC)[C@@H](C)O)C(=O)O | 3390 | 3420
CC[C@H](C)[C@H](NC(=O)[C@H](Cc1cnc[nH]1)NC(=O)[C@@H]1CCCN1C(=O)[C@H](CC(N)=O)NC(=O)[C@@H](N)CCSC)C(=O)O | 7080 | 7100
CC[C@H](C)[C@H](NC(=O)[C@H](CC(=O)O)NC(=O)[C@H](Cc1ccc(O)cc1)NC(=O)[C@H](CC(N)=O)NC(=O)[C@@H](N)CCSC)C(=O)O | 25.7 | 
CC[C@H](C)[C@H](NC(=O)CNC(=O)[C@H](CCCCN)NC(=O)[C@H](CC(N)=O)NC(=O)[C@@H](N)CCSC)C(=O)O | 15100 | 15200
CC[C@H](C)[C@H](NC(=O)[C@H](Cc1ccccc1)NC(=O)[C@H](Cc1ccc(O)cc1)NC(=O)[C@H](CC(N)=O)NC(=O)[C@@H](N)CCSC)C(=O)O | 191 | 191
CC[C@H](C)[C@H](NC(=O)[C@H](CC(N)=O)NC(=O)[C@H](Cc1c[nH]c2ccccc12)NC(=O)[C@H](CC(N)=O)NC(=O)[C@@H](N)CCSC)C(=O)O | 25.1 | 
